{"source": "patent US20240300972A1", "about": "“THIOPHENE-BASED LIPIDS” (Oregon State University, priority 2021, published 2024)", "key": {"[1]": {"test_system": "HeLa (human cervical epithelial cells)"}, "[2]": {"test_system": "HeLa, HEK293T/17, HepG2, Jurkat E6-1 cell lines"}}, "data": [{"substance": "6-(3-(dimethylamino)propanoyl)-2-((9Z,12Z)-octadeca-9,12-dienamido)-N-((9Z,12Z)-octadeca-9,12-dienoyl)-N-octadecyl-4,5,6,7-tetrahydrothieno[2,3-c]pyridine-3- [26a]", "values": [{"measurement": "transfection profile and cytotoxicity", "setting": "[1]", "result": "favorable transfection profile and cytotoxicity"}, {"measurement": "Cell viability", "setting": "[2]", "result": "> 60", "unit": "%"}]}]}
